Results reported in PubChem BioAssay (NCI).
This is a selection; strong and weak results do not stand in their true shares. Active and inactive are the calls of the source. Rule as the data show it: active = growth inhibition above about 70%; inactive = the rest.

What was measured:
[1] = NCI Yeast Anticancer Drug Screen. Data for the rad50 strain (AID 155);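 also: 0% = growth of vehicle-only cultures of the same strain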; conditions: S. cerevisiae rad50 strain growth inhibition; at 50.0 µM; hits give high values
[2] = NCI Yeast Anticancer Drug Screen. Data for the mec2-1 strain (AID 157); conditions: S. cerevisiae mec2-1 strain, at 50.0 µM, hits give high values
[3] = NCI Yeast Anticancer Drug Screen. Data for the sgs1 mgt1 strain (AID 161);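 also: 0% = growth of cultures given vehicle only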; conditions: S. cerevisiae sgs1 mgt1 strain, at 50.0 µM, hits give high values
[4] = NCI Yeast Anticancer Drug Screen. Data for the cln2 rad14 strain (AID 165);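 also: 0% = growth equal to vehicle treated cultures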; conditions: S. cerevisiae cln2 rad14 strain, at 50.0 µM, hits give high values
[5] = NCI Yeast Anticancer Drug Screen. Data for the bub3 strain (AID 167); conditions: S. cerevisiae bub3 mutant strain, at 50.0 µM, hits give high values
[6] = NCI Yeast Anticancer Drug Screen. Data for the mlh1 rad18 strain (AID 175); conditions: S. cerevisiae mlh1 rad18 strain growth inhibition; at 50.0 µM; hits give high values

SMILES | growth inhibition [1] | growth inhibition [2] | growth inhibition [3] | growth inhibition [4] | growth inhibition [5] | growth inhibition [6]
[N-]=[N+]=Nc1cc(N)c([N+](=O)[O-])cc1[N+](=O)[O-] | inactive: 45.3% | inactive: 15.1% | inactive: 21.4% | inactive: 9.4% | inactive: -7.35% | inactive: 27.1%
CN(N=O)C1=NC(c2ccccc2Cl)P(=O)(Nc2ncccn2)O1 (stereo unspecified) | inactive: -5.45% | inactive: -21.4% | inactive: -16.7% | inactive: 9.2% | inactive: 5.85% | inactive: 12.9%
O=C(Nc1ccc([N+](=O)[O-])cc1[N+](=O)[O-])Nc1ccc([N+](=O)[O-])cc1[N+](=O)[O-] | active: 91.9% | active: 85.2% | active: 94.8% | inactive: 43.4% | inactive: 69.4% | active: 82.9%
O=[As](O)(O)CC(O)CO (stereo unspecified) | inactive: 3.15% | inactive: -15% | inactive: 10.6% | inactive: 23.4% | inactive: 0.1% | inactive: -5.3%
Cc1ccc(N(CCCl)CCCl)cc1C | inactive: 8.7% | inactive: 11.8% | inactive: -13.2% | inactive: 2.3% | inactive: 1.25% | inactive: 4.8%
CCNC(=O)O[C@@H]1CC[N+]2([O-])CC=C(COC(=O)C(O)(CC)c3ccc(Cl)cc3)C12 (stereo partly specified) | inactive: -4.85% | inactive: -26.4% | inactive: -25.5% | inactive: 3% | inactive: 3.4% | inactive: -2.6%
O=[As](O)(O)c1ccc([As](=O)(O)O)cc1 | inactive: -17.2% | inactive: -23.2% | inactive: -36.3% | inactive: 21.6% | inactive: -39.5% | inactive: 8.9%
CCN(CC)CCNc1cc(OC)cc2nccnc12 | inactive: 18.4% | inactive: 15.2% | inactive: 10.3% | inactive: -28.1% | inactive: -12.1% | inactive: 1.55%
BrP(c1ccccc1)c1ccccc1 | inactive: 6.2% | inactive: 6.6% | inactive: 10.2% | inactive: 14.2% | inactive: -9.4% | inactive: 11.1%
O=C(Cn1nnc2ccccc21)N(CCCl)CCCl | inactive: -12.2% | inactive: -7.35% | inactive: -0.1% | inactive: 4.9% | inactive: 0.15% | inactive: 3.5%
CN(CCCl)CCCn1ccnc1[N+](=O)[O-] | inactive: 5.85% | inactive: -28.3% | inactive: 9.9% | inactive: 0.35% | inactive: 1.65% | inactive: -8.4%
CCN(CC)Cc1ccc(N(CCCl)CCCl)cc1 | inactive: 4.3% | inactive: 8.6% | inactive: -8.85% | inactive: 35.6% | inactive: 14.7% | inactive: 14.7%
CC(/C=C/C(C)=N\Nc1ccc([N+](=O)[O-])cc1[N+](=O)[O-])=N/Nc1ccc([N+](=O)[O-])cc1[N+](=O)[O-] | inactive: -27.5% | inactive: 3.45% | inactive: -10.3% | inactive: 5% | inactive: -2.3% | inactive: -7.45%
CCOC(=O)NC(c1ccc(OC)c(OC)c1)P(=O)(O)Nc1ncn[nH]1 (stereo unspecified) | inactive: 9.45% | inactive: 4.05% | inactive: 10.5% | inactive: 10.5% | inactive: -0.4% | inactive: 31.9%
O=C(O)C(CCSSCCC(Nc1ccc([N+](=O)[O-])cc1[N+](=O)[O-])C(=O)O)Nc1ccc([N+](=O)[O-])cc1[N+](=O)[O-] (stereo unspecified) | inactive: 52.4% | inactive: 26.8% | inactive: 48% | inactive: 26.7% | inactive: 4.7% | inactive: 46.5%
O=C(CC(=O)c1ccccc1)OC1CN2CCC1CC2 (stereo unspecified) | inactive: 34.4% | inactive: 24.2% | inactive: -8.45% | inactive: 0.85% | inactive: 27.8% | inactive: 47.1%
N=C(N)SCCCl | inactive: 5.15% | inactive: 3.8% | inactive: 16.1% | inactive: -13.3% | inactive: -1.85% | inactive: 32.8%
Cc1ccc(OP(=O)(Cl)Cl)cc1 | inactive: 6.7% | inactive: 4.2% | inactive: -4.15% | inactive: 4.45% | inactive: -36.6% | inactive: -3.85%
Cc1cccc(OP(=O)(Cl)Oc2cccc(C)c2)c1 | inactive: -26.9% | inactive: -3.65% | inactive: 2.15% | inactive: -30.1% | inactive: 4.2% | inactive: -12.6%
CCCSC1CCOP(=O)(N(CCCl)CCCl)N1C (stereo unspecified) | inactive: 10.8% | inactive: -0.75% | inactive: 7.8% | inactive: 1.7% | inactive: 7.6% | inactive: 28.6%
CC(O)COc1ccc([As](=O)(O)O)cc1N (stereo unspecified) | inactive: -14.8% | inactive: -42.4% | inactive: -19.4% | inactive: -6.15% | inactive: -13.8% | inactive: -23.9%
